Literature values, collected in patent US6489350B1, “Methods for treating neuropathic pain using heteroarylmethanesulfonamides” (Elan Pharmaceuticals, Inc., priority 1999, dated 2002).

System: common receptor sites (benzodiazepine, glutamate, NMDA, quisqualate, kainate, glycine, adrenergic, adenosine, cholinergic, dopamine, histamine H1, serotonin …)
Conditions: concentrations up to 100 μM; cited from earlier work

## NCC1(CC(=O)O)CCCCC1 [Gabapentin, 1-(aminomethyl)cyclohexaneacetic acid]
  Affinity for common receptor sites in radioligand binding assays: did not exhibit affinity
